# Test results from US10016408B2, “Chemokine CXCR4 receptor modulators and uses related thereto” (EMORY UNIVERSITY, priority 2010, dated 2018).
# Test system: PBM cells
# Details: read-out: PBMC TC50; PBM cells run in parallel for cytotoxicity
# Method: To test efficacy of selected compounds, peripheral mononuclear cell assays are performed. Cells are infected for 6 days with live HIV IIIB virus and PBM cells are run in parallel for cytotoxicity testing, with or without selected agents. Efficacy of compounds as antagonists of the sdf-1 ligand to CXCR4 receptors was determined in I^125 labeled sdf-1 displacement assays from CXCR4-expressing CEM cells are performed.
substance,measurement,value
Maraviroc,CC50,> 2 µM
